Usually IC50 stands for the point on the concentration scale where inhibition reaches its midpoint.

By UniProt entry, the sequences of proteins in these tests, tags left out. Where a name states a change or a piece, a line headed by the entry shows the natural chain unless it says otherwise.
UniProt O14939: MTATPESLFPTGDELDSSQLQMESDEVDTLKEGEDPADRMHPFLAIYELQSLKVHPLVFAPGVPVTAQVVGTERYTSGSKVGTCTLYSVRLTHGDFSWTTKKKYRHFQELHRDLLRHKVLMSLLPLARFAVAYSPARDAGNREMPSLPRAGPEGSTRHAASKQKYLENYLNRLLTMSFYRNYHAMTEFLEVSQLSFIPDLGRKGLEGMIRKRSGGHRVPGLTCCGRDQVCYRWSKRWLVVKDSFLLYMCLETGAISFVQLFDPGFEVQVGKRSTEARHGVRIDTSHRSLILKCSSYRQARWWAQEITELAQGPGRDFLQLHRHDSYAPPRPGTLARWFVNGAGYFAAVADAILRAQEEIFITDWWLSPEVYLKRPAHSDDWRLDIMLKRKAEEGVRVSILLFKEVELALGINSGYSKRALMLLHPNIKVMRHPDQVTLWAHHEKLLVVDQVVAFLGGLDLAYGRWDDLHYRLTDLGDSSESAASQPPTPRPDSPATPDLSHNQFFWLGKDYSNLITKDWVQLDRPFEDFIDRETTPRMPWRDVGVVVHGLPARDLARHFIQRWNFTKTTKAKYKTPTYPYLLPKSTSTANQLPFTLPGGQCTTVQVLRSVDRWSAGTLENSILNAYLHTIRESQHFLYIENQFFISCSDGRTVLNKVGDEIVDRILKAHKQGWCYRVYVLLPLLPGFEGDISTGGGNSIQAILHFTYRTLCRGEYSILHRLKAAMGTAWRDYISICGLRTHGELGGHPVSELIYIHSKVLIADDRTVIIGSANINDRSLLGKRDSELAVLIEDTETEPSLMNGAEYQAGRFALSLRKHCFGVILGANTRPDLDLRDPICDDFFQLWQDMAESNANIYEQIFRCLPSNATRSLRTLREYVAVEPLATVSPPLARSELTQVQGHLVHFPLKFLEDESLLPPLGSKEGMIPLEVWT

Experimental findings from PubChem BioAssay AID602149 (Vanderbilt Specialized Chemistry Center, 2011) are described below.

Molecules are shown by their SMILES.

This assay concerns the target Phospholipase D2 (Homo sapiens) + Phospholipase D2 (Homo sapiens) (UniProt O14939+O14939). Kind of assay: PubChem AID 602149. The settings on record: purified human PLD2 enzyme activity assay.

As for `C[C@@H](CN1CCC2(CC1)C(=O)NCN2c1ccccc1)NC(=O)c1ccc2ccccc2c1`, the IC50 is 235 nM.
